Patent US20130131059A1, “METHOD FOR TREATING OPHTHALMIC DISEASES USING KINASE INHIBITOR COMPOUNDS IN PRODRUG FORMS” (INSPIRE PHARMACEUTICALS, INC., priority 2010, published 2013)

The chains behind the UniProt entries cited, without tags or fusion partners. Where a name states a change or a piece, a line headed by the entry shows the natural chain unless it says otherwise.
UniProt O75116: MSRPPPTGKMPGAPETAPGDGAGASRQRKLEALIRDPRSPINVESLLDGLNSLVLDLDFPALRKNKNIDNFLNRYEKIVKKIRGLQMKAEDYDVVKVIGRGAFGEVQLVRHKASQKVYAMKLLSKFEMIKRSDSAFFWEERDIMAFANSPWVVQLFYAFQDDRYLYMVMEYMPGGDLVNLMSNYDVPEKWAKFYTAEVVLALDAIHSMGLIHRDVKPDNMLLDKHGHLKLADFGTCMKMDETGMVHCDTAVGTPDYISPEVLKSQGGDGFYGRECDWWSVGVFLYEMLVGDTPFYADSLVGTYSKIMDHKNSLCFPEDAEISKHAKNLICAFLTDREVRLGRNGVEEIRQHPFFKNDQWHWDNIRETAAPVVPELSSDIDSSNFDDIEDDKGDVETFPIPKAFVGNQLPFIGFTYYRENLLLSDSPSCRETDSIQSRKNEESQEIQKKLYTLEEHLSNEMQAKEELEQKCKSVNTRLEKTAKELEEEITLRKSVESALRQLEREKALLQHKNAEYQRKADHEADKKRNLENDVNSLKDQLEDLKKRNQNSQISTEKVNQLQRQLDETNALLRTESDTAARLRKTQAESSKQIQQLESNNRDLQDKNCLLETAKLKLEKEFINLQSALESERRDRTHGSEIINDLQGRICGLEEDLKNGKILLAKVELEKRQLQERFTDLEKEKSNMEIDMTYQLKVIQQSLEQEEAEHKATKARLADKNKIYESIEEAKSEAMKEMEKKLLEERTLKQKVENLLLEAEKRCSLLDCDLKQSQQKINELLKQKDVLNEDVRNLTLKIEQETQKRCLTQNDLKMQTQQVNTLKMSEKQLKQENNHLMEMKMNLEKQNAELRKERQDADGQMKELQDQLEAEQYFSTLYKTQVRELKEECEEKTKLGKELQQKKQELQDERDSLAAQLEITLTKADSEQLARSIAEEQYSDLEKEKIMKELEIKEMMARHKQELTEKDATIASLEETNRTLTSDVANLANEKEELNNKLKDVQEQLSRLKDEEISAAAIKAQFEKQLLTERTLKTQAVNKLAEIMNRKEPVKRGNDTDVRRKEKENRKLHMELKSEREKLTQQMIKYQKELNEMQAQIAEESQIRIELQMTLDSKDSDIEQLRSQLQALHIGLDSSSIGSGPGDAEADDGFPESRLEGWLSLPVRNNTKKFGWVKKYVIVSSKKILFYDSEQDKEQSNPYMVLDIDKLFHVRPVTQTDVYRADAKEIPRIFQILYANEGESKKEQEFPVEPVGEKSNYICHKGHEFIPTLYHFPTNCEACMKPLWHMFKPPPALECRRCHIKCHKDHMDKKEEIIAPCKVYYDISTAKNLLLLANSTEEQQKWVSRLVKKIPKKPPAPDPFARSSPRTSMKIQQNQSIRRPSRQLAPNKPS

Molecular target: T1, ROCK2 (Homo sapiens, UniProt O75116)
T1 construct: purchased Upstate/Chemicon 14-451
Assay: Rho kinase inhibition assay (IMAP fluorescence polarization), ROCK2
Assay type: biochemical
Conditions: 10 μM ATP, 60 min at room temperature
Protocol: Inhibition of ROCK2 and ROCK1 activity was determined using the IMAP™ Screening Express Kit (Molecular Devices product number #8073). ROCK2 enzyme (Upstate/Chemicon #14-451), ROCK1 (Upstate/Chemicon #14-601) and Fluorescein tagged substrate peptide Fl-[…] (Molecular Devices product number R7184) was pre-incubated with a test compound for 5 minutes in buffer containing 10 mM Tris-HCl pH 7.2, 10 mM MgCl2, and 0.1% BSA. Following the pre-incubation, 10 μM ATP was added to initiate the reaction. After 60 minutes at room temperature, Molecular Devices IMAP™ binding solution was added to bind phosphorylated substrate. After 30 minutes of incubation in the presence of the IMAP™ beads, the fluorescence polarization was read and the ratio was reported as mP. IC50 values for compounds and EC50 values for ATP were calculated using the Prism software from Graphpad, and the results are summarized in Table 1.
See Tian et al., Arch. Ophthalmol. […] Ophthalmol. Vis. Sci. 40: 239-242, 1999; Tian, et al., Exp. Eye Res. 68: 649-655; 1999; Sabanay, et al., Arch. Ophthalmol. […] Cytoskel. 29: 321-338, 1994; Tian, et al., Exp. Eye Res. 71: 551-566, 2000; Tokushige, et al., Invest. Ophthalmol. Vis. Sci. 48: 3216-3222, 2007; Honjo, et al., Invest. Ophthalmol. Vis.

Question: With `Cc1ccc(CN2CC[C@@H](Nc3cccc4cnccc34)C2)cc1OCCO` [Compound 49, [2-(5-(((R)-3-(isoquinolin-5-ylamino)pyrrolidin-1-yl)methyl)-2-methylphenoxy)]ethanol] as the compound, how does the IC50 read?
Answer: 2.2 nM
